Protein sequences, listed by entry. Tags and fused reporters are not part of them. Residues count along the entry.
UniProt P25774, 115-331: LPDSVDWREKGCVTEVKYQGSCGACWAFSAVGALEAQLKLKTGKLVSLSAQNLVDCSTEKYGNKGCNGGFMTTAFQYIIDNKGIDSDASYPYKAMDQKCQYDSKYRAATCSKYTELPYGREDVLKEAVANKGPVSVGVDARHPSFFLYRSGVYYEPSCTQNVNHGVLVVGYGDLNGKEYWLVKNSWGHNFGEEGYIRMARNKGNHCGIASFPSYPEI

According to patent US20090099157A1, “TETRAHYDRO-PYRAZOLO-PYRIDINE THIOETHER MODULATORS OF CATHEPSIN S” (priority 2007, published 2009):

Molecular target: Recombinant human cathepsin S (CatS) (Homo sapiens, UniProt P25774)
Experiment: biochemical

Row | IC50 [nM] | SMILES
1 | 290 | CS(=O)(=O)N1CCc2c(c(-c3ccc(C(F)(F)F)c(SCCN4CCC(F)CC4)c3)nn2CC(O)CN2CCCC(O)C2)C1 (stereo not shown) [Example 486, 1-(3-{3-[3-{[2-(4-Fluoropiperidin-1-yl)ethyl]sulfanyl}-4-(trifluoromethyl)phenyl]-5-(methylsulfonyl)-4,5,6,7-tetrahydro-1H-pyrazolo[4,3-c]pyridin-1-yl}-2-hydroxypropyl)piperidin-3-ol]
2 | 150 | N#Cc1ccccc1N1CCN(CC(O)Cn2nc(-c3ccc(C(F)(F)F)c(SCCN4CCC(F)CC4)c3)c3c2CCNC3)CC1 (stereo not shown) [Example 537, 2-[4-(3-{3-[3-{[2-(4-Fluoropiperidin-1-yl)ethyl]sulfanyl}-4-(trifluoromethyl)phenyl]-4,5,6,7-tetrahydro-1H-pyrazolo[4,3-c]pyridin-1-yl}-2-hydroxypropyl)piperazin-1-yl]benzonitrile]
3 | 10 | CS(=O)(=O)N1CCc2c(c(-c3ccc(C(F)(F)F)c(SCCN4CCCC(F)(F)C4)c3)nn2C[C@@H](O)CN2CCC(c3ccccn3)CC2)C1 [Example 210, (2S)-1-{3-[3-{[2-(3,3-Difluoropiperidin-1-yl)ethyl]sulfanyl}-4-(trifluoromethyl)phenyl]-5-(methylsulfonyl)-4,5,6,7-tetrahydro-1H-pyrazolo[4,3-c]pyridin-1-yl}-3-(4-pyridin-2-ylpiperidin-1-yl)propan-2-ol]
4 | 1190 | O=C(N1CCCC1)N1CCc2c(c(-c3ccc(C(F)(F)F)c(SCCN4CCC(F)CC4)c3)nn2C[C@@H](O)CN2CCCCC2)C1 [Example 511, (2S)-1-{3-[3-{[2-(4-Fluoropiperidin-1-yl)ethyl]sulfanyl}-4-(trifluoromethyl)phenyl]-5-(pyrrolidin-1-ylcarbonyl)-4,5,6,7-tetrahydro-1H-pyrazolo[4,3-c]pyridin-1-yl}-3-piperidin-1-ylpropan-2-ol]
5 | 90 | CS(=O)(=O)N1CCc2c(c(-c3ccc(C(F)(F)F)c(SCCN4CCC(N5CCCC5)CC4)c3)nn2CC(O)CN2CCC(c3ccccn3)CC2)C1 (stereo not shown) [Example 185, 1-{5-(Methylsulfonyl)-3-[3-{[2-(4-pyrrolidin-1-ylpiperidin-1-yl)ethyl]sulfanyl}-4-(trifluoromethyl)phenyl]-4,5,6,7-tetrahydro-1H-pyrazolo[4,3-c]pyridin-1-yl}-3-(4-pyridin-2-ylpiperidin-1-yl)propan-2-ol]
6 | 90 | CS(=O)(=O)N1CCc2c(c(-c3ccc(C(F)(F)F)c(SCCN4CCC(F)(F)C4)c3)nn2CC(O)CN2CCC(C(N)=O)CC2)C1 (stereo not shown) [Example 625, 1-(3-{3-[3-{[2-(3,3-Difluoropyrrolidin-1-yl)ethyl]sulfanyl}-4-(trifluoromethyl)phenyl]-5-(methylsulfonyl)-4,5,6,7-tetrahydro-1H-pyrazolo[4,3-c]pyridin-1-yl}-2-hydroxypropyl)piperidine-4-carboxamide]
7 | 100 | N#Cc1ccc(C2CCN(CC(O)Cn3nc(-c4ccc(C(F)(F)F)c(SCC(=O)N5CCCC5)c4)c4c3CCNC4)CC2)cc1 (stereo not shown) [Example 425, 4-{1-[2-Hydroxy-3-(3-{3-[(2-oxo-2-pyrrolidin-1-ylethyl)sulfanyl]-4-(trifluoromethyl)phenyl}-4,5,6,7-tetrahydro-1H-pyrazolo[4,3-c]pyridin-1-yl)propyl]piperidin-4-yl}benzonitrile]
8 | 13000 | OC(CN1CCC(F)(F)C1)Cn1nc(-c2ccc(C(F)(F)F)c(SCCN3CCC(F)(F)C3)c2)c2c1CCNC2 (stereo not shown) [Example 310, 1-(3,3-Difluoropyrrolidin-1-yl)-3-{3-[3-{[2-(3,3-difluoropyrrolidin-1-yl)ethyl]sulfanyl}-4-(trifluoromethyl)phenyl]-4,5,6,7-tetrahydro-1H-pyrazolo[4,3-c]pyridin-1-yl}propan-2-ol]
9 | 450 | CC(C)(C)OC(=O)NCC(=O)N1CCc2c(c(-c3ccc(C(F)(F)F)c(SCCN4CCC(F)CC4)c3)nn2CC(O)CN2CCCCC2)C1 (stereo not shown) [Example 746, 1,1-Dimethylethyl (2-{3-[3-{[2-(4-fluoropiperidin-1-yl)ethyl]sulfanyl}-4-(trifluoromethyl)phenyl]-1-(2-hydroxy-3-piperidin-1-ylpropyl)-1,4,6,7-tetrahydro-5H-pyrazolo[4,3-c]pyridin-5-yl}-2-oxoethyl)carbamate]
10 | 7680 | OC(CN1CCC(N2CCOCC2)CC1)Cn1nc(-c2ccc(C(F)(F)F)c(SCCN3CCCCC3)c2)c2c1CCNC2 (stereo not shown) [Example 361, 1-(4-Morpholin-4-ylpiperidin-1-yl)-3-(3-{3-[(2-piperidin-1-ylethyl)sulfanyl]-4-(trifluoromethyl)phenyl}-4,5,6,7-tetrahydro-1H-pyrazolo[4,3-c]pyridin-1-yl)propan-2-ol]

Continued, molecule first:

Row | SMILES | IC50 [nM]
11 | CS(=O)(=O)N1CCc2c(c(-c3ccc(C(F)(F)F)c(SCCN4CCCCC4)c3)nn2CCCN2CCOCC2)C1 [Example 59, 5-Methanesulfonyl-1-(3-morpholin-4-yl-propyl)-3-[3-(2-piperidin-1-yl-ethylsulfanyl)-4-trifluoromethyl-phenyl]-4,5,6,7-tetrahydro-1H-pyrazolo[4,3-c]pyridine] | 810
12 | CS(=O)(=O)N1CCc2c(c(-c3ccc(C(F)(F)F)c(SCCN4CCOCC4)c3)nn2CC(O)CN2CCN(c3ncccc3Cl)CC2)C1 (stereo not shown) [Example 813, 1-[4-(3-Chloropyridin-2-yl)piperazin-1-yl]-3-[5-(methylsulfonyl)-3-{3-[(2-morpholin-4-ylethyl)sulfanyl]-4-(trifluoromethyl)phenyl}-4,5,6,7-tetrahydro-1H-pyrazolo[4,3-c]pyridin-1-yl]propan-2-ol] | 55
13 | CS(=O)(=O)N1CCc2c(c(-c3ccc(C(F)(F)F)c(SCCN4CCN(c5ccccc5)CC4)c3)nn2CCCN2CCC(N3CCCC3=O)CC2)C1 [Example 26, 1-{1-[3-(5-Methanesulfonyl-3-{3-[2-(4-phenyl-piperazin-1-yl)-ethylsulfanyl]-4-trifluoromethyl-phenyl}-4,5,6,7-tetrahydro-pyrazolo[4,3-c]pyridin-1-yl)-propyl]-piperidin-4-yl}-pyrrolidin-2-one] | 480
14 | CC(=O)NC1CCN(CCSc2cc(-c3nn(C[C@@H](O)CN4CCOCC4)c4c3CN(S(C)(=O)=O)CC4)ccc2C(F)(F)F)CC1 [Example 285] | 2650
15 | CS(=O)(=O)N1CCc2c(c(-c3ccc(C(F)(F)F)c(SCCN4CCCC(C(F)(F)F)C4)c3)nn2CCCN2CCC(N3CCCC3=O)CC2)C1 (stereo not shown) [Example 38, 1-{1-[3-(5-Methanesulfonyl-3-{4-trifluoromethyl-3-[2-(3-trifluoromethyl-piperidin-1-yl)-ethylsulfanyl]-phenyl}-4,5,6,7-tetrahydro-pyrazolo[4,3-c]pyridin-1-yl)-propyl]-piperidin-4-yl}-pyrrolidin-2-one] | 280
16 | CS(=O)(=O)N1CCc2c(c(-c3ccc(C(F)(F)F)c(SCCN4CCC(F)CC4)c3)nn2C[C@@H](O)CN2CCCCC2CCO)C1 (stereo partly drawn) [Example 620, (2S)-1-{3-[3-{[2-(4-Fluoropiperidin-1-yl)ethyl]sulfanyl}-4-(trifluoromethyl)phenyl]-5-(methylsulfonyl)-4,5,6,7-tetrahydro-1H-pyrazolo[4,3-c]pyridin-1-yl}-3-[2-(2-hydroxyethyl)piperidin-1-yl]propan-2-ol] | 850
17 | CC1(O)CCN(C[C@H](O)Cn2nc(-c3ccc(C(F)(F)F)c(SCCN4CC[C@H](F)C4)c3)c3c2CCN(S(C)(=O)=O)C3)CC1 [Example 484, 1-[(2S)-3-{3-[3-({2-[(3S)-3-Fluoropyrrolidin-1-yl]ethyl}sulfanyl)-4-(trifluoromethyl)phenyl]-5-(methylsulfonyl)-4,5,6,7-tetrahydro-1H-pyrazolo[4,3-c]pyridin-1-yl}-2-hydroxypropyl]-4-methylpiperidin-4-ol] | 1580
18 | CC(=O)N1CCN(CCSc2cc(-c3nn(CC(O)CN4CCC(N5CCOCC5)CC4)c4c3CN(S(C)(=O)=O)CC4)ccc2C(F)(F)F)CC1 (stereo not shown) [Example 849, 1-{3-[3-{[2-(4-Acetylpiperazin-1-yl)ethyl]sulfanyl}-4-(trifluoromethyl)phenyl]-5-(methylsulfonyl)-4,5,6,7-tetrahydro-1H-pyrazolo[4,3-c]pyridin-1-yl}-3-(4-morpholin-4-ylpiperidin-1-yl)propan-2-ol] | 620
19 | CS(=O)(=O)N1CCc2c(c(-c3ccc(C(F)(F)F)c(SCCN4CCCC(CO)C4)c3)nn2CCCN2CCC(N3CCCC3=O)CC2)C1 (stereo not shown) [Example 13, 1-{1-[3-(3-{3-[2-(3-Hydroxymethyl-piperidin-1-yl)-ethylsulfanyl]-4-trifluoromethyl-phenyl}-5-methanesulfonyl-4,5,6,7-tetrahydro-pyrazolo[4,3-c]pyridin-1-yl)-propyl]-piperidin-4-yl}-pyrrolidin-2-one] | 150
20 | CN1CCC(N(C)C(=O)CSc2cc(-c3nn(CCCN4CCC(N5CCCC5=O)CC4)c4c3CN(S(C)(=O)=O)CC4)ccc2C(F)(F)F)CC1 [Example 99, 2-[5-(5-Methanesulfonyl-1-{3-[4-(2-oxo-pyrrolidin-1-yl)-piperidin-1-yl]-propyl}-4,5,6,7-tetrahydro-1H-pyrazolo[4,3-c]pyridin-3-yl)-2-trifluoromethylphenylsulfanyl]-N-methyl-N-(1-methyl-piperidin-4-yl)-acetamide] | 1260
21 | CC(C)(O)C1CCN(CCSc2cc(-c3nn(C[C@@H](O)CN4CCOCC4)c4c3CN(S(C)(=O)=O)CC4)ccc2C(F)(F)F)CC1 [Example 227, (2S)-1-{3-[3-({2-[4-(1-Hydroxy-1-methylethyl)piperidin-1-yl]ethyl}sulfanyl)-4-(trifluoromethyl)phenyl]-5-(methylsulfonyl)-4,5,6,7-tetrahydro-1H-pyrazolo[4,3-c]pyridin-1-yl}-3-morpholin-4-ylpropan-2-ol] | 1130
22 | CC(C)(C)OC(=O)N1CCC(C(=O)NCCSc2cc(-c3nn(CC(O)CN4CCC(N5CCCC5=O)CC4)c4c3CN(S(C)(=O)=O)CC4)ccc2C(F)(F)F)CC1 (stereo not shown) [Example 116, 4-{2-[5-(1-{2-Hydroxy-3-[4-(2-oxo-pyrrolidin-1-yl)-piperidin-1-yl]-propyl}-5-methanesulfonyl-4,5,6,7-tetrahydro-1H-pyrazolo[4,3-c]pyridin-3-yl)-2-trifluoromethyl-phenylsulfanyl]-ethylcarbamoyl}-piperidine-1-carboxylic acid tert-butyl ester] | 190
